Assay results from ChEMBL document CHEMBL1132239, “Tricyclic farnesyl protein transferase inhibitors: crystallographic and calorimetric studies of structure-activity relationships” (J Med Chem, 1999).

Biological target: Protein farnesyltransferase (Homo sapiens, UniProt P49354+P49356)
Assay: Inhibition of Farnesyltransferase
Assay type: protein-complex assay

NC(=O)N1CCC(CC(=O)N2CCC([C@@H]3c4ncc(Br)cc4CCc4cc(Cl)cc(Br)c43)CC2)CC1
IC50: 378 nM
